Values quoted from earlier work as cited in patent publication US20220050096A1, “ANALYTE-SENSITIVE PROBES AND CONTACT LENS FOR DIAGNOSIS OF OCULAR PATHOLOGIES” (University Of Maryland, Baltimore, priority 2020, published 2022).

Details: cited from earlier work

2′,7′-bis(2-carboxyethyl)-5(6)-carboxyfluorescein [BCECF]
Lifetime (ns) τA (A form (value in parentheses)): 3.17 ns | Lifetime (ns) τB (B form): 4.49 ns | QB (B form): ~0.7 | lifetime at high pH (high pH): 3.9 | lifetime at low pH (low pH): 3.0
